ChEMBL document CHEMBL1135692, “Structure-activity relationships of the melanocortin tetrapeptide Ac-His-D-Phe-Arg-Trp-NH2 at the mouse melanocortin receptors. 4. Modifications at the Trp position” (J Med Chem, 2002)

Sequences of proteins named here, by UniProt entry; tags and fusion partners are left off. A change or cut given only in a name is not applied to a line headed by its entry.
UniProt Q01727: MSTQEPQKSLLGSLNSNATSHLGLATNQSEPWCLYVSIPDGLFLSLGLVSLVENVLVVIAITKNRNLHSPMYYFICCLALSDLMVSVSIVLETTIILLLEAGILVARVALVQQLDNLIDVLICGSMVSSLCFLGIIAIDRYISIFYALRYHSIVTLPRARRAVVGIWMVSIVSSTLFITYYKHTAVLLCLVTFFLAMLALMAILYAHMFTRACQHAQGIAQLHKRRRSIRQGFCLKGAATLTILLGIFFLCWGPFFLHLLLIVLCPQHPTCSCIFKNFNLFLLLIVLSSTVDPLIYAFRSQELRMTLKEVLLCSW

Target: Melanocyte-stimulating hormone receptor (Mus musculus, UniProt Q01727)
Assay: Activity in mouse melanocortin-1 receptor stably expressed in HEK293 cells
Format: cell-based

SMILES: CC(=O)N[C@@H](Cc1cnc[nH]1)C(=O)NC(Cc1ccccc1)C(=O)N[C@@H](CCCNC(=N)N)C(=O)NC(Cc1c[nH]c2ccccc12)C(N)=O (stereo in doubt)
- EC50: 20.1 nM
